The results in this text go back to US6818618B1, “Inhibition of smooth muscle cell migration by Tenascin-C peptides” (Cedars-Sinai Medical Center, priority 1998, dated 2004).

Molecules are shown by their SMILES.

Type in all cases: cell-based, rat
Assay [1] has as its system adhesion of newborn SMCs to Tenascin-C. Description: Adhesion of newborn SMCs to Tenascin-C-coated wells in the presence of soluble agents. The protocol:
(§1) Microtiter plates (Falcon, Becton Dickinson, Oxnard, Calif.) were coated with the respective substrate for one (1) hour at 37° C. Nonspecific sites were blocked with 1 mg/ml BSA in PBS. […] After incubation for 60 min. at 37° C., nonadherent cells were removed with gentle washing with PBS. The number of attached cells were quantified by staining cells with 0.2% crystal violet in 20% methanol, lysing with 1% SDS, and measuring the absorbance at 550 nm (14).
It has been shown that the interaction of some cells with Tenascin-C is mediated by the RGD motif (20, 23). Therefore, an adhesion assay was used to determine the role of RGD in the interaction between Tenascin-C and SMCs. The specificity of the adhesion was determined by coating the wells with the recombinant 10th-type III repeat of fibronectin (24). In FIG. 2, 96-well plates were coated with either BSA (BSA), Tenascin-C (TN), or the recombinant 10th-type III repeat of fibronectin (10III) as described for FIG. 1. Newborn SMCs were detached, washed once in adhesion buffer and added to various concentrations of the peptide GRGDS. Cells and peptides were then preincubated for 30 min. prior to plating. The values shown are the mean±SEM of triplicate samples. Nonspecific binding to control wells coated with BSA was not subtracted from each value.
In FIG. 3, 96-well plates were coated with solutions containing intact fibronectin (FN), the recombinant 10th-type III repeat of fibronectin (FN10III), or Tenascin-C (TN). […] The number of attached cells was quantified by a colorimeter. Values shown are from a representative experiment in which triplicates are plotted as mean±SEM. […]
(§2) To distinguish between these possibilities, the recombinant FN-L proteins were labeled with ^125I, and their ability to coat the tissue culture dishes was compared to the Fbg-L domain. […] Adhesion was measured as described above. […]
(§3) In FIG. 8(B), 96-well plates were coated with BSA, intact Tenascin-C (TN) or the fibrinogen-like domain (Fbg-L), and adhesion of newborn cells was measured in the presence of 1 μM synthetic peptides.

Assay [2] concerns adhesion of newborn SMCs to the recombinant 10th-type III repeat of fibronectin. In words: Adhesion of newborn SMCs to the recombinant 10th-type III repeat of fibronectin in the presence of soluble agents. The conditions noted are these: various concentrations of cation. On the procedure:
as §1
It has been shown that the interaction of some cells with Tenascin-C is mediated by the RGD motif (20, 23). Therefore, an adhesion assay was used to determine the role of RGD in the interaction between Tenascin-C and SMCs. The specificity of the adhesion was determined by coating the wells with the recombinant 10th-type III repeat of fibronectin (24). […]
In FIG. 3, 96-well plates were coated with solutions containing intact fibronectin (FN), the recombinant 10th-type III repeat of fibronectin (FN10III), or Tenascin-C (TN). […] The number of attached cells was quantified by a colorimeter. […]
as §2

The subject of assay [3] is adhesion of newborn SMCs to the Fbg-L domain. In words: Adhesion of newborn SMCs to Fbg-L domain-coated wells in the presence of soluble agents. The settings on record: EDTA or cations; not shown. On the procedure:
as §1, §3

Consider `[Ca+2]` [Ca^2+], for which the “inhibition of the Mg^2+-dependent adhesion of newborn cells to Tenascin-C” value in assay [1] (Ca^2+ up to 10 mM in the presence of Mg^2+, not shown) is “no indication”. Further, the “effect on adhesion of SMCs to Tenascin-C (summary statement)” value in assay [1] (concentration not given) was “but not”. In assay [1] (various concentrations of cation), the “effect of cation on newborn SMCs adhesion to Tenascin-C” value is given as “ineffective”. In addition, in assay [2], the “effect of cation on newborn SMCs adhesion to the recombinant fibronectin fragment” value is “ineffective”. Besides, the “effect on adhesion of SMCs to the Fbg-L domain” value in assay [3] is given as “but not”.
